Test system: kappa opioid receptor (KOR)
Test: in vivo PET receptor occupancy
Assay type: cell-based, Macaca mulatta
Settings: rhesus monkey, brain

C=CCN1CC[C@]23c4c5ccc(O)c4O[C@H]2C(=O)CC[C@@]3(O)[C@H]1C5 [naloxone]
% occupancy at 1 mg/kg: 91 ± 2 % occupancy at 1 mg/kg
